# Assay results as given in patent US11389464B2, “Arginase inhibitors as therapeutics” (Mars, Incorporated, priority 2010, dated 2022).
# Amino acid sequences for entries named in this document (tags omitted). A change or cut given only in a name is not applied to a line headed by its entry. Residues count along the entry.
# UniProt P05089: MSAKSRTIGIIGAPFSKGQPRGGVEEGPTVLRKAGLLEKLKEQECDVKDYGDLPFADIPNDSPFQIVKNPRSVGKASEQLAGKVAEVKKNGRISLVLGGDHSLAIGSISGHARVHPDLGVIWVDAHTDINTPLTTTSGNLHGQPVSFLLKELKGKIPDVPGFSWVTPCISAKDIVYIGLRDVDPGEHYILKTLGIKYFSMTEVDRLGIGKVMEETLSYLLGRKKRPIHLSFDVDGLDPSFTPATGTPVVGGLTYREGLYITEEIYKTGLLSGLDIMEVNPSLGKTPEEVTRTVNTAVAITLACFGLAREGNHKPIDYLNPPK
# UniProt P78540, 23-354: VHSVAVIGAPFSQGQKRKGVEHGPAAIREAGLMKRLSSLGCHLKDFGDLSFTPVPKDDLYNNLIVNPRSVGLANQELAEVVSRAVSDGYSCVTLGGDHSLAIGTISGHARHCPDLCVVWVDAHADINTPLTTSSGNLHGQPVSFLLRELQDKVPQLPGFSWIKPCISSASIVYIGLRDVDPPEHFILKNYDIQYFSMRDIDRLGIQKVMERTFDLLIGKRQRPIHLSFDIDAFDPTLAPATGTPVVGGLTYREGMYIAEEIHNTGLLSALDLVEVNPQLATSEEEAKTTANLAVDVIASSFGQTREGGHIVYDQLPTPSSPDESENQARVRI
# Assays:
# human arginase I (ARG I) = human arginase I (ARG I) (Homo sapiens (Human), UniProt P05089); test: Inhibition of arginase I (ARG I), spectrophotometric urea assay at 530 nm; type: biochemical; conditions: potency rank 1-5; 37° C., 60 minutes, pH 7.4
# Description: (§1) The assay established the concentration of inhibitor that is required to reduce arginase activity by 50% (IC50), as shown in Table 2 below.
# (§2) Inhibition of arginase I (ARG I) and arginase II (ARG II) by Formula I or Formula II compounds is followed spectrophotometrically at 530 nm. The compound to be tested was dissolved in DMSO at an initial concentration 50-fold greater than its final concentration in the cuvette. 10 μl of the stock solution was diluted in 90 μl of the assay buffer that comprises 0.1M sodium phosphate buffer containing 130 mM NaCl, pH 7.4, to which is added ovalbumin (OVA) at a concentration of 1 mg/ml. Solutions of arginase I and II were prepared in 100 mM sodium phosphate buffer, pH 7.4 containing 1 mg/ml of OVA to give an arginase stock solution at a final concentration of 100 ng/ml.
# (§3) To each well of a 96-well microtiter plate was added 40 μl of enzyme, 10 μl of an inventive compound and 10 μl of enzyme substrate (L-arginine+manganese sulfate). For wells that were used as positive controls, only the enzyme and its substrate were added, while wells used as negative controls contained only manganese sulfate.
# (§4) After incubating the microtiter plate at 37° C. for 60 minutes, 150 μl of a urea reagent obtained by combining equal proportions (1:1) of reagents A and B is added to each well of the microtitcr plate to stop the reaction. […]
# [1] = target: human arginase II (ARG II) (Homo sapiens (Human), UniProt P78540); test: Inhibition of arginase II (ARG II), spectrophotometric urea assay at 530 nm; type: biochemical; conditions: potency rank 1-5; 37° C., 60 minutes, pH 7.4
# Description: as §1, §2, §3, §4
substance,measurement,setting,value
"(2R,3S)-3-amino-2-(3-boronopropyl)pyrrolidine-3-carboxylic acid [Example 10]",IC50,human arginase I (ARG I),> 5 µM
same,IC50,[1],> 5 µM
